According to US20140066367A1, “SUBCUTANEOUS DELIVERY OF A LONG-ACTING NATRIURETIC PEPTIDE” (Mayo Foundation for Medical Education and Research, priority 2012, published 2014):

Key:
[1] = Mean arterial pressure and heart rate after subcutaneous administration to conscious canines; assay type: in vivo, canine; details: SQ
Protocol: Studies were performed in accordance with the Animal Welfare Act and with approval of the Mayo Clinic Institutional Animal Care and Use Committee. A randomized crossover study was designed in which equimolar (2.225 nmol/kg) SQ M-ANP and SQ ANP were administered to conscious healthy adult canines (n=5) at 2-week intervals. Vehicle (SQ 0.9% normal saline) was administered to 3 canines serving as a control group. At least 7 days prior to the above studies, an arterial port was placed in the femoral artery as previously described (Cataliotti et al. (2008) Circulation, 118:1729-1736). After recovery from arterial port placement, canines were fed a fixed sodium diet of 100 mEq/d with ad libitum access to water for 5 days before initiation of studies. During this time, canines were acclimatized to standing calm in a sling. On the day of the experiment, the dogs were fasted and placed in a sling in a quiet room. Thirty minutes before the beginning of the experiment, the femoral artery port was accessed for continuous BP and heart rate assessment (iWorx, Dover, N.H.). After 30 minutes of acclimatization, the study protocol was started. Subcutaneous M-ANP, ANP or vehicle was administered at time 0 minutes. At time −15, 0, 5, 10, 15, 30, 45, 60, 75, 90, 120, 150, 180, 210, 240, 270, and 300 minutes, mean arterial pressure (MAP) and heart rate samples were obtained over a period of 1 minute. […]

[2] = Plasma ANP immunoreactivity and pharmacokinetics after subcutaneous administration to conscious canines; assay type: in vivo, canine
Protocol: Studies were performed in accordance with the Animal Welfare Act and with approval of the Mayo Clinic Institutional Animal Care and Use Committee. A randomized crossover study was designed in which equimolar (2.225 nmol/kg) SQ M-ANP and SQ ANP were administered to conscious healthy adult canines (n=5) at 2-week intervals. Vehicle (SQ 0.9% normal saline) was administered to 3 canines serving as a control group. At least 7 days prior to the above studies, an arterial port was placed in the femoral artery as previously described (Cataliotti et al. (2008) Circulation, 118:1729-1736). After recovery from arterial port placement, canines were fed a fixed sodium diet of 100 mEq/d with ad libitum access to water for 5 days before initiation of studies. During this time, canines were acclimatized to standing calm in a sling. On the day of the experiment, the dogs were fasted and placed in a sling in a quiet room. Thirty minutes before the beginning of the experiment, the femoral artery port was accessed for continuous BP and heart rate assessment (iWorx, Dover, N.H.). After 30 minutes of acclimatization, the study protocol was started. Subcutaneous M-ANP, ANP or vehicle was administered at time 0 minutes. At time −15, 0, 5, 10, 15, 30, 45, 60, 75, 90, 120, 150, 180, 210, 240, 270, and 300 minutes, mean arterial pressure (MAP) and heart rate samples were obtained over a period of 1 minute. At the same times, arterial blood samples were obtained for measurement of plasma ANP and cGMP immunoreactivity. The study was completed 300 minutes after the SQ administration of M-ANP, ANP, or vehicle, and the arterial port was disengaged. Canines were allowed to recuperate for two weeks between studies.
Blood samples were collected in chilled EDTA tubes, immediately placed on ice, and centrifuged at 4° C. Plasma was stored at −80° C. until analysis. After extraction, plasma ANP immunoreactivity (Phoenix Pharmaceuticals, Burlingame, Calif.) was assessed by radioimmunoassay as previously described (Burnett et al. (1986) Science, 231:1145-1147). The cross-reactivity for M-ANP with the above assay is 100% (McKie et al. (2010) Hypertension, 56:1152-1159). Plasma cGMP (PerkinElmer, Waltham, Mass.) was assessed by radioimmunoassay (Steiner et al., supra).
Pharmacokinetic profile of M-ANP compared to ANP was determined using PK Solutions software (Summit PK, Montrose, Colo.). Specific parameters that were determined included plasma half-life, maximum concentration (Cmax) and area under the curve (AUC).

## CC[C@H](C)[C@@H]1NC(=O)[C@H](CCCNC(=N)N)NC(=O)[C@H](CC(=O)O)NC(=O)[C@H](CCSC)NC(=O)[C@H](CCCNC(=N)N)NC(=O)CNC(=O)CNC(=O)[C@H](Cc2ccccc2)NC(=O)[C@@H](NC(=O)[C@H](CO)NC(=O)[C@H](CO)NC(=O)[C@H](CCCNC(=N)N)NC(=O)[C@H](CCCNC(=N)N)NC(=O)[C@H](CC(C)C)NC(=O)[C@@H](N)CO)CSSC[C@@H](C(=O)N[C@@H](CC(N)=O)C(=O)N[C@@H](CO)C(=O)N[C@@H](Cc2ccccc2)C(=O)N[C@@H](CCCNC(=N)N)C(=O)N[C@@H](Cc2ccc(O)cc2)C(=O)N[C@@H](CCCNC(=N)N)C(=O)N[C@H](C(=O)N[C@H](C(=O)N[C@@H](C)C(=O)N[C@@H](CCCNC(=N)N)C(=O)N[C@@H](CCC(=O)O)C(=O)N[C@@H](CC(=O)O)C(=O)N[C@@H](CCCCN)C(=O)N[C@@H](CCC(N)=O)C(=O)NCC(=O)N[C@@H](Cc2c[nH]c3ccccc23)C(=O)N[C@@H](C)C(=O)O)[C@@H](C)O)[C@@H](C)CC)NC(=O)CNC(=O)[C@H](CC(C)C)NC(=O)CNC(=O)[C@H](CO)NC(=O)[C@H](CCC(N)=O)NC(=O)[C@H](C)NC(=O)CNC1=O [M-ANP]
[1]
  heart rate compared to ANP administration: not significantly different
[2]; SQ, canines
  time ANP immunoreactivity remained significantly elevated: 150 min
  time of peak ANP immunoreactivity after administration: 60 min
[2]; dog, in vivo, sc, subcutaneous, equimolar 2.225 nmol/kg, conscious canines
  half-life: 47.4 ± 12.7 min
[2]; dog, in vivo, sc, subcutaneous, equimolar 2.225 nmol/kg, conscious canines, read-out: ANPi Cmax
  Cmax: 0.38 ± 0.1 nM
[2]; dog, in vivo, SQ-administered, canines
  half-life: 47 min
[2]; subcutaneous, equimolar 2.225 nmol/kg, conscious canines
  ANPi AUC: 44.9 ± 12.3 pmol·min/mL
